# Tested on: FaDu cells
# Test: IC50 assay (inhibition of proliferation, 4 h exposure, SRB)
# Format: cell-based
smiles,measurement,setting,value
"O=C(O)CCCc1ccc(N(CCCl)CCCl)cc1 [Compound 1, chlorambucil]",ACR (oxic IC50/anoxic IC50),pHe 6.5,1.41 ± 0.42
same,ACR (oxic IC50/anoxic IC50),pHe 7.4,1.14 ± 0.14

# From paper PMC6680510, “Benzotriazine Di-Oxide Prodrugs for Exploiting Hypoxia and Low Extracellular pH in Tumors” (Molecules, 2019)
